Drawing on patent US20210395313A1, “PEPTIDE PAC1 ANTAGONISTS” (AMGEN INC., priority 2017, published 2021), this text covers IC50 for 5 compounds.

For orientation: pIC50 means the negative decadic logarithm of the IC50, by convention in mol/L.

One experiment addresses T1, rat PAC1 receptor (Rattus norvegicus, UniProt P32215).
T1 construct: SHSY-5Y (human neuroblastoma cell line) and RG-2 (rat glioma cell line) cells endogenously express human and rat PAC1 receptors, respectively; endogenous in cells; host or cells: RG-2 rat glioma cells
T1 sequence (P32215 20-523): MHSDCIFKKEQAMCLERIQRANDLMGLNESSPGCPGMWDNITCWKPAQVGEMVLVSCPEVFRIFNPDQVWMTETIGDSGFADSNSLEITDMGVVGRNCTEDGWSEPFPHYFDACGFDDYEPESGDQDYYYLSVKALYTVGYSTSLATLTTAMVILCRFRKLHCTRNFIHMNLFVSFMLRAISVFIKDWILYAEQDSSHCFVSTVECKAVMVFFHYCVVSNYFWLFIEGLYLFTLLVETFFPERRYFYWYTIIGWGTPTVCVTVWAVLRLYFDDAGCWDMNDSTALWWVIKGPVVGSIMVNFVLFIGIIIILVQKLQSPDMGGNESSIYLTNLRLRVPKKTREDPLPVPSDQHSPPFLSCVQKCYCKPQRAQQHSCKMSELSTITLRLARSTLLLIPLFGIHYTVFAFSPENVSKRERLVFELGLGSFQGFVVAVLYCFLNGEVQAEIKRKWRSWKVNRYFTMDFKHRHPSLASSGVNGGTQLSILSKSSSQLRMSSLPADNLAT
The experiment can be described thus: LANCE Ultra cAMP accumulation antagonist assay in RG-2 cells.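 Also: RG-2 rat glioma cells endogenously expressing PAC1, test peptide preincubated 30 min, then PAC1 agonist added at its EC80 for 15 min, cAMP accumulation read by LANCE Ultra.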 The format is cell-based.

In another experiment the target is T2, human PAC1 receptor (Homo sapiens, UniProt P41586).
T2 construct: SHSY-5Y (human neuroblastoma cell line) and RG-2 (rat glioma cell line) cells endogenously express human and rat PAC1 receptors, respectively; endogenous in cells; host or cells: SHSY-5Y human neuroblastoma cells
T2 sequence (P41586 21-468): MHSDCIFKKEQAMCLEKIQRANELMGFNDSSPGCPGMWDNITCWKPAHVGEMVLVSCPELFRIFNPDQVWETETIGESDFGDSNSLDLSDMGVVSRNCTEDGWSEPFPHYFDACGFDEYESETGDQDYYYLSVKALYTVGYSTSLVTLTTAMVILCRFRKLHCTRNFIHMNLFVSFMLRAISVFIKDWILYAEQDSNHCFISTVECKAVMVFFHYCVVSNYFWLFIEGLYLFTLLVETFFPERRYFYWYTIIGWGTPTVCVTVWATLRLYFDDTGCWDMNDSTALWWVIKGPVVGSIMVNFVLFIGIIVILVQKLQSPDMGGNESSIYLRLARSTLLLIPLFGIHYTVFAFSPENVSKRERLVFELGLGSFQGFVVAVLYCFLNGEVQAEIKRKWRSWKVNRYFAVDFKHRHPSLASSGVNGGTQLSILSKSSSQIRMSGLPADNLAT
Nature of the experiment: LANCE Ultra cAMP accumulation antagonist assay in SHSY-5Y cells.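 Also: inhibition of cAMP accumulation evoked by PAC1 agonist at its EC80 in SHSY-5Y cells endogenously expressing receptor, 30 min preincubation then 15 min agonist, TR-FRET readout.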 Type of experiment: cell-based. For orientation: TR-FRET usually uses a lanthanide donor and a delayed reading to cut background.

pIC50: −log10 of the molar value.

For the compound `CC[C@H](C)[C@H](NC(=O)[C@H](C)NC(=O)[C@H](CCCCN)NC(=O)[C@H](CCCNC(=N)N)NC(=O)[C@H](Cc1ccccc1)NC(=O)[C@H](CCC(N)=O)NC(=O)[C@@H]1CSSC[C@H](N)C(=O)N[C@@H](CC(=O)O)C(=O)N[C@@H](C)C(=O)N[C@@H]([C@@H](C)O)C(=O)N1)C(=O)N[C@@H](CC(=O)O)C(=O)N[C@@H](CC(=O)O)C(=O)N[C@H]1CSSC[C@@H](C(=O)N[C@@H](CCSC)C(=O)N[C@@H](CCCCN)C(=O)N[C@@H](CCC(N)=O)C(=O)N[C@@H](CCCCN)C(=O)N[C@@H](CCCCN)C(=O)N[C@@H](CCCCN)C(=O)N[C@@H](CCC(=O)O)C(=O)N[C@@H](Cc2c[nH]c3ccccc23)C(=O)N[C@@H](CCCCN)C(=O)N[C@@H](C)C(=O)NCC(N)=O)NC(=O)C(C)(C)NC(=O)[C@H](CCCCN)NC(=O)[C@H](Cc2ccccc2)NC(=O)[C@H](C(C)C)NC(=O)[C@H](CO)NC(=O)CNC(=O)[C@@H]2CCCN2C(=O)[C@H](C(C)C)NC(=O)[C@H](CC(N)=O)NC(=O)[C@H](CO)NC(=O)[C@H](Cc2c[nH]cn2)NC(=O)[C@H](Cc2c[nH]cn2)NC(=O)[C@H](C)NC(=O)[C@H](CCC(N)=O)NC(=O)[C@H](CCCCN)NC(=O)[C@H](CCC(N)=O)NC1=O` [compound 231], the negative-log IC50 (pIC50) against rat PAC1 receptor and on human PAC1 receptor was 9.00 to 11.00 each time.
With `CCCC[C@H](NC(=O)[C@@H]1CSSC[C@H](NC(=O)[C@H](CC(=O)O)NC(=O)[C@H](CC(=O)O)NC(=O)[C@@H](NC(=O)[C@H](C)NC(=O)[C@H](CCCCN)NC(=O)[C@H](CCCNC(=N)N)NC(=O)[C@H](Cc2ccccc2)NC(=O)[C@H](CCC(N)=O)NC(=O)[C@@H]2CSSC[C@H](N)C(=O)N[C@@H](CC(=O)O)C(=O)N[C@@H](C)C(=O)N[C@@H]([C@@H](C)O)C(=O)N2)[C@@H](C)CC)C(=O)N[C@@H](CC(=O)O)C(=O)N[C@@H](CCCCN)C(=O)N[C@@H](CCC(N)=O)C(=O)N[C@@H](C)C(=O)N[C@@H](Cc2c[nH]cn2)C(=O)N[C@@H](Cc2c[nH]cn2)C(=O)N[C@@H](CO)C(=O)N[C@@H](CC(N)=O)C(=O)N[C@@H](C(C)C)C(=O)N2CCC[C@H]2C(=O)NCC(=O)N[C@@H](CO)C(=O)N[C@@H](C(C)C)C(=O)N[C@@H](Cc2ccccc2)C(=O)N[C@@H](CCCCN)C(=O)NC(C)(C)C(=O)N1)C(=O)N[C@@H](CCCCN)C(=O)N[C@@H](CCC(N)=O)C(=O)N[C@@H](CCCCN)C(=O)N[C@@H](CCCCN)C(=O)N[C@@H](CCCCN)C(=O)N[C@@H](CCC(=O)O)C(=O)N[C@@H](Cc1ccccc1)C(=O)N[C@@H](CCCCN)C(=O)N[C@@H](C)C(=O)NCC(N)=O` [compound 255], the negative logarithm of the IC50 (pIC50) against rat PAC1 receptor is 9.00 to 11.00; against human PAC1 receptor, 7.00 to 9.00.
The like results for `CC[C@H](C)[C@H](NC(=O)[C@H](C)NC(=O)[C@H](CCCCN)NC(=O)[C@H](CCCNC(=N)N)NC(=O)[C@H](Cc1ccccc1)NC(=O)[C@H](CCC(N)=O)NC(=O)[C@@H]1CSSC[C@H](NC(C)=O)C(=O)N[C@@H](CC(=O)O)C(=O)N[C@@H](C)C(=O)N[C@@H]([C@@H](C)O)C(=O)N1)C(=O)N[C@@H](CC(=O)O)C(=O)N[C@@H](CC(=O)O)C(=O)N[C@H]1CSSC[C@@H](C(=O)N[C@@H](CCSC)C(=O)N[C@@H](CCCCN)C(=O)N[C@@H](CCC(N)=O)C(=O)N[C@@H](CCCCN)C(=O)N[C@@H](CCCCN)C(=O)N[C@@H](CCCCN)C(=O)N[C@@H](CCC(=O)O)C(=O)N[C@@H](Cc2ccccc2)C(=O)N[C@@H](CCCCN)C(=O)N[C@@H](C)C(=O)NCC(N)=O)NC(=O)C(C)(C)NC(=O)[C@H](CCCCN)NC(=O)[C@H](Cc2ccccc2)NC(=O)[C@H](CO)NC(=O)CNC(=O)[C@@H]2CCCN2C(=O)[C@H](C(C)C)NC(=O)[C@H](CC(N)=O)NC(=O)[C@H](CO)NC(=O)[C@H](Cc2c[nH]cn2)NC(=O)[C@H](Cc2c[nH]cn2)NC(=O)[C@H](C)NC(=O)[C@H](CCC(N)=O)NC(=O)[C@H](CCCCN)NC(=O)[C@H](CC(=O)O)NC1=O` [compound 239] were, in that order, 9.00 to 11.00 and 7.00 to 9.00.
On to `CC[C@H](C)[C@H](NC(=O)[C@H](C)NC(=O)[C@H](CCCCN)NC(=O)[C@H](CCCNC(=N)N)NC(=O)[C@H](Cc1ccccc1)NC(=O)[C@H](CCC(N)=O)NC(=O)[C@@H]1CSSC[C@H](N)C(=O)N[C@@H](CC(=O)O)C(=O)N[C@@H](C)C(=O)N[C@@H]([C@@H](C)O)C(=O)N1)C(=O)N[C@@H](CC(=O)O)C(=O)N[C@@H](CC(=O)O)C(=O)N[C@H]1CSSC[C@@H](C(=O)N[C@@H](CCSC)C(=O)N[C@@H](CCCCN)C(=O)N[C@@H](CCC(N)=O)C(=O)N[C@@H](CCCCN)C(=O)N[C@@H](CCCCN)C(=O)N[C@@H](CCCCN)C(=O)N[C@@H](CCC(=O)O)C(=O)N[C@@H](Cc2ccccc2)C(=O)N[C@@H](CCCCN)C(=O)N[C@@H](C)C(=O)NCC(N)=O)NC(=O)C(C)(C)NC(=O)[C@H](CCCCN)NC(=O)[C@H](Cc2ccccc2)NC(=O)[C@H](C(C)C)NC(=O)CNC(=O)[C@@H]2CCCN2C(=O)[C@H](C(C)C)NC(=O)[C@H](CC(N)=O)NC(=O)[C@H](CO)NC(=O)[C@H](Cc2c[nH]cn2)NC(=O)[C@H](Cc2c[nH]cn2)NC(=O)[C@H](C)NC(=O)[C@H](CCC(N)=O)NC(=O)[C@H](CCCCN)NC(=O)[C@H](CCC(N)=O)NC1=O` [compound 237], for which the negative-log IC50 (pIC50) is 9.00 to 11.00 against rat PAC1 receptor and 7.00 to 9.00 at human PAC1 receptor.
The matching figures for `CCCC[C@H](NC(=O)[C@@H]1CSSC[C@H](NC(=O)[C@H](CC(=O)O)NC(=O)[C@H](CC(=O)O)NC(=O)[C@@H](NC(=O)[C@H](C)NC(=O)[C@H](CCCCN)NC(=O)[C@H](CCCNC(=N)N)NC(=O)[C@H](Cc2ccccc2)NC(=O)[C@H](CCC(N)=O)NC(=O)[C@@H]2CSSC[C@H](N)C(=O)N[C@@H](CC(=O)O)C(=O)N[C@@H](C)C(=O)N[C@@H]([C@@H](C)O)C(=O)N2)[C@@H](C)CC)C(=O)N[C@@H](CCC(N)=O)C(=O)N[C@@H](CCCCN)C(=O)N[C@@H](CCC(N)=O)C(=O)N[C@@H](C)C(=O)N[C@@H](Cc2c[nH]cn2)C(=O)N[C@@H](Cc2c[nH]cn2)C(=O)N[C@@H](CO)C(=O)N[C@@H](CC(N)=O)C(=O)N[C@@H](CO)C(=O)N[C@@H](C(C)C)C(=O)N[C@@H](Cc2ccccc2)C(=O)N[C@@H](CCCCN)C(=O)NC(C)(C)C(=O)N1)C(=O)N[C@@H](CCCCN)C(=O)N[C@@H](CCC(N)=O)C(=O)N[C@@H](CCCCN)C(=O)N[C@@H](CCCCN)C(=O)N[C@@H](CCCCN)C(=O)N[C@@H](CCC(=O)O)C(=O)N[C@@H](Cc1ccccc1)C(=O)N[C@@H](CCCCN)C(N)=O` [compound 246]: 7.00 to 9.00 and 7.00 to 9.00.
